The assay deals with T1, TEM1 on SJSA-1 and A673 cells (UniProt Q9HCU0 18-757, limits assumed).
T1 sequence (looked up): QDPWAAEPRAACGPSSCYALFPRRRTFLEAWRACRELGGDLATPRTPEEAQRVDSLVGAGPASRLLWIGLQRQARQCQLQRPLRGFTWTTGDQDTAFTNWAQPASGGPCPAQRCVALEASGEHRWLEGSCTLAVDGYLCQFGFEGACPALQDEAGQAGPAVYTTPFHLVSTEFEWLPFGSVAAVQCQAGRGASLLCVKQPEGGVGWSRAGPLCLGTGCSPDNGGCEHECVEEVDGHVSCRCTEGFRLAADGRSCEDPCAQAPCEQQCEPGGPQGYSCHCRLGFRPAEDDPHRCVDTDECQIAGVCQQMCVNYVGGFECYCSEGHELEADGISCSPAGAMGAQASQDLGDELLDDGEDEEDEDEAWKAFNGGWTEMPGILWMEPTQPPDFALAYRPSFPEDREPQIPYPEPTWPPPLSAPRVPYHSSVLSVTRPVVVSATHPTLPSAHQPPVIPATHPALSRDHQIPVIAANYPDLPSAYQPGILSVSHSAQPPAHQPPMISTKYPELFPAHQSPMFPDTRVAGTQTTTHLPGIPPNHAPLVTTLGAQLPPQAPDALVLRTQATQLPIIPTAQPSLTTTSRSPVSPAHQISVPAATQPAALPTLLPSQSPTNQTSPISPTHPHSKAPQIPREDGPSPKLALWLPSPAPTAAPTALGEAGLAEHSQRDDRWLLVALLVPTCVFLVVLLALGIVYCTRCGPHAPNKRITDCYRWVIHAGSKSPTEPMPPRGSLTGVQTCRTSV
In words: cell-based or functional assay.

The values below come from patent publication US20160136299A1 (Sanofi, published 2016).

Residue numbers refer to the chain shown, from its start. Names and notes keep the numbering of the source.

B1: antiTEM1 A114N-AO-MC-VC-PABC-MMAE (antibody, human IgG1, kappa)
heavy: QVQLQESAPGLVKPSETLSLTCTVSGGSIRSYYWSWIRQPPGKGLEYIGYIYYTGSAIYNPSLQSRVTISVDTSKNQFSLKLNSVTAADTAVYYCAREGVRGASGYYYYGMDVWGQGTTVTVSSNSTKGPSVFPLAPSSKSTSGGTAALGCLVKDYFPEPVTVSWNSGALTSGVHTFPAVLQSSGLYSLSSVVTVPSSSLGTQTYICNVNHKPSNTKVDKKV[omitted - human IgG1 Fc]
light: not shown
modifications: aminooxy-MC-VC-PABC-MMAE on galactose aldehyde (galactose oxidase) of the glycans, DAR 1.72
Regarding B1, the “IC50, cell proliferation assay, A673-DMEM-RPMI” value came to 2.2 µg/mL and the “IC50, cell proliferation assay, SJSA-1” value stood at 3 µg/mL.

B2: antiTEM1-MC-VC-PABC-MMAE (antibody, human IgG1, kappa)
heavy: B1 heavy with N125A
light: not shown
modifications: MC-VC-PABC-MMAE by thiol conjugation; DAR not given
Take B2: the “IC50, cell proliferation assay, A673-DMEM-RPMI” value stood at 0.9 µg/mL; the “IC50, cell proliferation assay, A673-RPMI” value is 1 µg/mL; the “IC50, cell proliferation assay, SJSA-1” value was determined as 4 µg/mL.
